In patent publication US8551978B2 (Theravance, Inc., priority 2009, dated 2013) one finds Ki and EC50 data, which are given here for 4 molecules.

The chains behind the UniProt entries cited, without tags or fusion partners.
UniProt P20309, whole entry: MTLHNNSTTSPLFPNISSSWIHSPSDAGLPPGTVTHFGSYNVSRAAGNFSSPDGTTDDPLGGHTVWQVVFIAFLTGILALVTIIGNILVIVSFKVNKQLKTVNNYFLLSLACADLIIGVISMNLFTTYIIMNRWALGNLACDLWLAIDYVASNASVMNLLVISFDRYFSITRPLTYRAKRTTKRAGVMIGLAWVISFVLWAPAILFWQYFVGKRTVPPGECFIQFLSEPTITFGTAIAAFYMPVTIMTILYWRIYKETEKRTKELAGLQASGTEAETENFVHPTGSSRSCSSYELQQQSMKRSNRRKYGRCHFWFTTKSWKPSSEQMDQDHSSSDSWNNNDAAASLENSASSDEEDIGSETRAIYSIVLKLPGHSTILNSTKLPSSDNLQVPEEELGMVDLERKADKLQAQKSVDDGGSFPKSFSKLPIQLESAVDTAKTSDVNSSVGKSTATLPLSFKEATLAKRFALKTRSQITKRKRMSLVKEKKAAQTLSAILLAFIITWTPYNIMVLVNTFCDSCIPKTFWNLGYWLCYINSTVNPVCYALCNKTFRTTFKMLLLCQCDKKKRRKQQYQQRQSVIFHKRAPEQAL
UniProt P07550, whole entry: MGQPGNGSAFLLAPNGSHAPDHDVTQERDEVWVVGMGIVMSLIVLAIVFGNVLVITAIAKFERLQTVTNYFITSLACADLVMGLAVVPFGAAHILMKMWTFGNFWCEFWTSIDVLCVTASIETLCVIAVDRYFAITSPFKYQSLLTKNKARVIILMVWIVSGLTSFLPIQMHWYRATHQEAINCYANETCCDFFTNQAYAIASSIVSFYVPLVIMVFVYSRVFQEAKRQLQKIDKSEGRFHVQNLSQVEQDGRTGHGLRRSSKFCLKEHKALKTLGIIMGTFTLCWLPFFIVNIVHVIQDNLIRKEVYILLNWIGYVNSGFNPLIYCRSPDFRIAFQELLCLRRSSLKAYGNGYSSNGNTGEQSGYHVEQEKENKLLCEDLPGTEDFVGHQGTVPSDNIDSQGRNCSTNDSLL

The term Ki denotes a dissociation constant, usually derived from enzyme kinetics or from competition with a known ligand. A higher Ki goes with lower affinity. For orientation: EC50 means the concentration at which the effect is half-maximal. Lower therefore signals higher potency in that assay.

Assay [1] addresses hM3 muscarinic receptor (Homo sapiens (Human), UniProt P20309). In words: Radioligand binding assay for muscarinic receptors ([3H]-NMS displacement, CHO cell membranes). The method, then:
The cells were grown in a 5% CO2, 37° C. incubator and lifted with 2 mM EDTA in dPBS. Cells were collected by 5 minute centrifugation at 650×g, and cell pellets were either stored frozen at −80° C. or membranes were prepared immediately for use. For membrane preparation, cell pellets were resuspended in lysis buffer and homogenized with a Polytron PT-2100 tissue disrupter (Kinematica AG; 20 seconds×2 bursts). Crude membranes were centrifuged at 40,000×g for 15 minutes at 4° C. The membrane pellet was then resuspended with re-suspension buffer and homogenized again with the Polytron tissue disrupter. The protein concentration of the membrane suspension was determined by the method described in Lowry et al., 1951, […], 193, 265. All membranes were stored frozen in aliquots at −80° C. or used immediately. […] The membranes were briefly homogenized using a Polytron tissue disruptor (10 seconds) prior to assay plate addition. […] The test compounds were initially dissolved to a concentration of 400 μM in dilution buffer and then serially diluted 5× with dilution buffer to final concentrations ranging from 10 μM to […]. The order of addition and volumes added to the assay plates were as follows: 25 μL radioligand, 25 μL diluted test compound, and 50 μL membranes. Assay plates were incubated for 6 hours at 37° C. […] Filter plates were rinsed three times with wash buffer (10 mM HEPES) to remove unbound radioactivity. The plates were then air-dried and 50 μL Microscint-20 liquid scintillation fluid (PerkinElmer, Inc.) were added to each well. The plates were then counted in a PerkinElmer Topcount liquid scintillation counter (PerkinElmer, Inc.). Binding data were analyzed by nonlinear regression analysis with the GraphPad Prism Software package (GraphPad Software, Inc., San Diego, Calif.) using the one-site competition model. […] These summary statistics were then converted back to K; values for data reporting.

The target in assay [2] is hβ2 adrenergic receptor (Homo sapiens (Human), UniProt P07550). In words: Assay for determining adrenergic receptor agonist potency (cAMP Flashplate, HEK-293 cells). In kind it is cell-based. The method, then: The cell monolayer was lifted with 2 mM EDTA in PBS. Cells were pelleted by centrifugation at 1,000 rpm, and cell pellets were either stored frozen at −80° C. or membranes were prepared immediately for use. cAMP assays were performed in a radioimmunoassay format using the Flashplate Adenylyl Cyclase Activation Assay System with [^125I]-cAMP (NEN SMP004, PerkinElmer Life Sciences Inc., Boston, Mass.), according to the manufacturers instructions. […] Cells were rinsed with PBS and detached in dPBS (Dulbecco's Phosphate Buffered Saline, without CaCl2 and MgCl2) containing 2 mM EDTA or Trypsin-EDTA solution (0.05% trypsin/0.53 mM EDTA). After counting cells in Coulter cell counter, cells were pelleted by centrifugation at 1,000 rpm and re-suspended in stimulation buffer containing TBMX (PerkinElmer Kit) pre-warmed to room temperature to a concentration of 1.6×10^6 to 2.8×10^6 cells/mL. About 40,000 to 80,000 cells per well were used in this assay. […] Reactions were incubated for 10 min at 37° C. and stopped by adding 100 μL of cold detection buffer containing [^125I]-cAMP (NEN SMP004, PerkinElmer Life Sciences, Boston, Mass.). […] Data were analyzed by nonlinear regression analysis with the GraphPad Prism Software package (GraphPad Software, Inc., San Diego, Calif.) with the sigmoidal equation. […]

Read-outs that look alike come from different tables or passages of the source.

`CC(Cc1ccc(NC(=O)c2cccc(N(C)C(=O)CCN3CCC(OC(=O)Nc4ccccc4-c4ccccc4)CC3)c2)cc1)NC[C@H](O)c1ccc(O)c2[nH]c(=O)ccc12` (stereo partly shown) [Compound I-40] showed a Ki in assay [1] of 0.1 nM.
Still for that read-out and setting: the figure for `C[C@@H](Cc1ccc(NC(=O)c2cccc(N(C)C(=O)CCN3CCC(OC(=O)Nc4ccccc4-c4ccccc4)CC3)c2)cc1)NC[C@H](O)c1ccc(O)c2[nH]c(=O)ccc12` [Compound I-43] is 0.1 nM.
For the molecule `CC(Cc1cc(CNC(=O)Cc2ccc(N(C)C(=O)CCN3CCC(OC(=O)Nc4ccccc4-c4ccccc4)CC3)cc2)ccc1F)NC[C@H](O)c1ccc(O)c2[nH]c(=O)ccc12` (stereo partly shown) [Compound I-73], it took 1 nM to reach a half-maximal effect in assay [2] (EC50). That is a single-digit nanomolar value.
In the case of `C[C@H](Cc1cccc(CNC(=O)c2ccc(N(C)C(=O)CCN3CCC(OC(=O)Nc4ccccc4-c4ccccc4)CC3)cc2)c1)NC[C@H](O)c1ccc(O)c2[nH]c(=O)ccc12` [Compound I-50], in assay [1] (hM3 Muscarinic Receptor Binding, data rounded to nearest 0.1 nM), the Ki was 0.4 nM.
